For the experiment, the system named is ATGL-KO iPSCs. In words: High throughput iPSC chemical screening, Oil Red O (ORO) lipid accumulation. Also: test concentration or dose not given here. The note with it: normalized ORO level vs DMSO-treated cells; compound present during 7 days differentiation, 96-well; negative = decrease in lipid accumulation.

Structures are written as SMILES.

Take `Nc1ncnc2c1ncn2[C@@H]1O[C@H](COP(=O)(O)O)[C@@H](O)[C@H]1O.O` [Adenosine 5′-monophosphate monohydrate]: the Z-score was −1.2202.

For the origin of these results see patent publication US9393221B2, “Methods and compounds for reducing intracellular lipid storage” (THE GENERAL HOSPITAL CORPORATION, priority 2011, dated 2016).
